{"sequences": {"note": "The chains behind the UniProt entries cited, without tags or fusion partners.", "UniProt Q96SB4, whole entry": "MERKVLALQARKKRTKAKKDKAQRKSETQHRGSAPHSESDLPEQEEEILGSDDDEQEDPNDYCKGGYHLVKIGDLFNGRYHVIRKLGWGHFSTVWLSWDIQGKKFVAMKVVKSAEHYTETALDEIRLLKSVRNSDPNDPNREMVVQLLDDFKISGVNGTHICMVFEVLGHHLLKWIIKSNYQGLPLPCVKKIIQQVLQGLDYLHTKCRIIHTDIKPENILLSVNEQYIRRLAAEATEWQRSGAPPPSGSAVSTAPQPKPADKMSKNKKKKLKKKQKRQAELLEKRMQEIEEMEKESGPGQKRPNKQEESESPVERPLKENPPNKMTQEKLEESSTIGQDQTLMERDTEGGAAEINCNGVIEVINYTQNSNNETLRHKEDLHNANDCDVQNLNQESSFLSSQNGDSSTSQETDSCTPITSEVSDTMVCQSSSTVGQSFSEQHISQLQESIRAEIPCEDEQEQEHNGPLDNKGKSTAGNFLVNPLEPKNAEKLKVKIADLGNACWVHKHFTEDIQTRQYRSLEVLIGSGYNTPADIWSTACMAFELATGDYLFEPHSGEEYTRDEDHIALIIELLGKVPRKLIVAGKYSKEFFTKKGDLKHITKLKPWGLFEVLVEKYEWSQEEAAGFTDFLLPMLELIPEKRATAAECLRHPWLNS"}, "source": "paper PMC7725506", "about": "“Functional Diversification of SRSF Protein Kinase to Control Ubiquitin-Dependent Neurodevelopmental Signaling” (Developmental Cell, 2020)", "key": {"[1]": {"system": "RNF12 SR-motif", "details": "hiPSCs (CHiPS4 cell line), 10 μM, 4 h", "procedure": "Phos-tag analyses were performed by loading protein samples containing 10 mM MnCl2 in 8% polyacrylamide gels containing 50 μM Phos-tag reagent (MRC-PPU reagents and services) and 0.1 mM MnCl2. After electrophoresis, gels were washed three times for 10 mins in Transfer buffer (48 mM Tris, 39 mM Glycine, 20% Methanol) supplemented with 20 mM EDTA. Proteins were then transferred to Nitrocellulose membranes, blocked and probed with the indicated antibodies. All protein signals were quantified using Image Studio (LI-COR Biosciences) or Image Lab software (Bio-Rad). Primary antibodies are listed in the Key Resource Table."}, "[2]": {"target": "SRPK1 (Homo sapiens, UniProt Q96SB4)", "assay_type": "biochemical", "details": "in vitro", "procedure": "Cells were lysed, and 1.5 mg of protein immunoprecipitated with 2 μg of SRPK1 or SRPK2 antibodies (BD Biosciences). Immunoprecipitates were then washed with lysis buffer supplemented with 500 mM NaCl and half of the sample was resuspended in loading buffer. The remainder was subjected to in vitro phosphorylation assay containing 0.5 μg RNF12 and 2 mM ATP in kinase buffer (50 mM Tris-HCl [pH 7.5], 0.1 mM EGTA, 10 mM MgCl2, 2 mM DTT) and incubated at 30°C for 30 min. […] For radioactive in vitro kinase assays, reactions were supplemented with 1 μCi γ-^32P ATP. Reactions were incubated at 30°C for 30 min in presence or absence of inhibitor as indicated and samples subjected to polyacrylamide electrophoresis and immunoblot or Coomassie blue staining and signal detected via ECL, infrared detection or autoradiography.\nSupplemental Figure Legends\n(Related to Figure 1). (A) Wild-type (WT) mESCs were analysed for protein copy number by absolute quantitative proteomics. […]\nData are represented as mean ± S.E.M. (n=3). […] ND = not detected. (B) Inhibition of RNF12 phosphorylation in vitro by SRPK1 and SRPK2 in the presence of varying concentrations of the indicated SRPK inhibitors was determined by immunoblotting for RNF12 phospho-Ser214 (Left). […] Immunoblots were quantified to generate SRPK inhibitor dose-response curves for inhibition of RNF12 phosphorylation by SRPK1 and SRPK2 in vitro (Right). […]"}, "[3]": {"system": "RNF12 SR-motif", "assay": "RNF12 SR-motif phosphorylation in mESCs by phos-tag immunoblotting", "assay_type": "cell-based, mouse"}, "[4]": {"system": "RNF12 phospho-Ser214", "assay": "RNF12 SR-motif phosphorylation in mESCs, immunoblotting for RNF12 phospho-Ser214 and total RNF12", "assay_type": "cell-based, mouse", "details": "10 μM, 4 h"}}, "note": "Read-outs that look alike come from different tables or passages of the source.", "data": [{"smiles": "CCc1cc2c(cc1-c1cccc(S(=O)(=O)F)c1)C(C)(C)c1[nH]c3cc(C#N)ccc3c1C2=O", "note": "[SRPKIN-1]", "values": [{"measurement": "RNF12 SR-motif phosphorylation (phos-tag)", "setting": "[1]", "value": "promotes RNF12 SR-motif dephosphorylation"}, {"measurement": "fold more potent toward SRPK1 than SPHINX31", "setting": "[2]", "value": "~10", "unit": "fold"}, {"measurement": "fold more potent toward SRPK1 than SRPIN-340", "setting": "[2]", "value": "~300", "unit": "fold"}, {"measurement": "time to RNF12 SR-motif de-phosphorylation (within)", "setting": "[3]; HA-RNF12 expressing Rlim-/y mESCs, 10 μM", "value": "1 to 2", "unit": "h"}, {"measurement": "RNF12 SR-motif phosphorylation in washout assays", "setting": "[3]; mESCs pre-treated with 5 μM for 3 h, media changed, further 5 h", "value": "inhibited"}, {"measurement": "RNF12 SR-motif phosphorylation (phos-tag)", "setting": "[3]; mESCs, 10 μM, 4 h", "value": "major dephosphorylation"}, {"measurement": "RNF12 phospho-Ser214/total ratio", "setting": "[4]", "value": "greatest impact"}]}]}
